Source: patent publication US20110092517A1, “Use of PPAR Delta Ligands for the Treatment or Prevention of Inflammation or Energy Metabolism/Production Related Diseases” (Cerenis Therapeutics S.A. & Nippon Chemiphar Co., Ltd., priority 2009, published 2011)

Amino acid sequences for entries named in this document (tags omitted). Residues count along the entry.
UniProt O88275, 238-503 limits assumed: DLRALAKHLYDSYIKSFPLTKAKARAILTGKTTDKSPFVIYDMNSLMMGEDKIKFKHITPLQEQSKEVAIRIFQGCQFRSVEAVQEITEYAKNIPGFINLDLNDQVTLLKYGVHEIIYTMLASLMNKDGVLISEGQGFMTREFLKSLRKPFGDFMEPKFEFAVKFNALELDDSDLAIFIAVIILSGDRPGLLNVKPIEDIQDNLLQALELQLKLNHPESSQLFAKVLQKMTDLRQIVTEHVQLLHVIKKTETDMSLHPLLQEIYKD

Molecular target: T1, rat PPARγ (Rattus norvegicus, UniProt O88275)
T1 construct: expressed in transfected cells; host or cells: CV-1
Assay: GAL4-PPAR chimera transactivation assay in CV-1 cells at 10% or 0.1% serum (Example 4)
Assay type: cell-based
Details: read-out: GAL4-chimera (rat) EC50 (μM) hPPARγ

SMILES: Cc1cc(SCc2sc(-c3ccc(C(F)(F)F)cc3)nc2C)ccc1OCC(=O)O [GW-501516]
- EC50 (0.1% serum): > 10 µM
- EC50 (10% serum): > 10 µM

Like-named read-outs stand apart in the source and are kept apart here.
